Earlier results on one substance are cited in article PMC9414616.

Amino acid sequences for entries named in this document (tags omitted).
UniProt P30989, whole entry: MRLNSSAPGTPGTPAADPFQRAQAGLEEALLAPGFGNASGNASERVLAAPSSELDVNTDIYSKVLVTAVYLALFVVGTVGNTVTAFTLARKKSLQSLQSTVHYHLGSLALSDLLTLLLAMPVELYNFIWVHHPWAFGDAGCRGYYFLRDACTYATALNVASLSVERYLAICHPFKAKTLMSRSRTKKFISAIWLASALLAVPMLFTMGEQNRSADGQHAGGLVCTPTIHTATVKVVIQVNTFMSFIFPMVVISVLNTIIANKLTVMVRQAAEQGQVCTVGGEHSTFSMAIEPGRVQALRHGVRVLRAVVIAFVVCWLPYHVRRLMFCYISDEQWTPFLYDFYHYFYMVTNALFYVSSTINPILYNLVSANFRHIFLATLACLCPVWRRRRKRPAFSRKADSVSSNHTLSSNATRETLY

This series concerns the target NTSR1 (UniProt P30989).

On to neurotensin (from UniProt P30990), for which the Kd is 0.5 nM.

As a reminder, the Kd is a measure of binding affinity in units of concentration.
